Patent publication US20190327974A1, “SYNERGISTS FOR IMPROVED PESTICIDES” (priority 2017, published 2019)

Sequences of proteins named here, by UniProt entry; tags and fusion partners are left off. Residues count along the entry.
UniProt P00811, 20-377: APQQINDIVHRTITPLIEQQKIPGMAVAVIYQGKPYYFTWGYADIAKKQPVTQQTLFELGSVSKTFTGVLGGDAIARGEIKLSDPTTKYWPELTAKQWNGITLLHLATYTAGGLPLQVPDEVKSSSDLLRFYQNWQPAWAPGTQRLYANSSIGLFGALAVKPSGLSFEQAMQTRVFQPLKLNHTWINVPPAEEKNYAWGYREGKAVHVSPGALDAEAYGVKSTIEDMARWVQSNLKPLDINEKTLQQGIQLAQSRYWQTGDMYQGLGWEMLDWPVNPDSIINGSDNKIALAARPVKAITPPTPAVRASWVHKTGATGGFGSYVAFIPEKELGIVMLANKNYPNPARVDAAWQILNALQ

Legend:
Trypsin = biological target: T1, Trypsin (Bos taurus, UniProt P00760); assay: Trypsin selectivity; format: biochemical
T1 construct: gene PRSS1
T1 sequence (P00760 24-246): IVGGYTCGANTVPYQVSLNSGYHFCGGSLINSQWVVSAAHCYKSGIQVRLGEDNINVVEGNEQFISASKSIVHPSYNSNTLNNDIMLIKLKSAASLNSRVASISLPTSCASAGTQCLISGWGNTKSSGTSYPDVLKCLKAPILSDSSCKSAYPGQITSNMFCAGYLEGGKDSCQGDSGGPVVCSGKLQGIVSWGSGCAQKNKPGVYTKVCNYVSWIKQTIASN
Protocol: (§1) To characterize the selectivity of boronic acids 1 to 5, they were assayed against AChE, the target of OP and carbamate insecticides (Table 1) as well as trypsin and bacterial AmpC β-lactamase. […] The toxicity of the hits against two human cell lines was further assessed.
(§2) To characterize the selectivity of boronic acids 1 to 5, they were assayed against the target of OP insecticides, AChE, as well as trypsin and bacterial AmpC β-lactamase (Table 1). AChE and αE7 are homologous, sharing the α/β-hydrolase fold and the same catalytic machinery, however the topology of their binding pockets is dissimilar (Jackson, C. J. et al. Structure and function of an insect α-carboxylesterase (αEsterase7) associated with insecticide resistance. Proc. Natl. Acad. Sci. U.S.A. 110, 10177-82 (2013) and Correy, G. J. et al. Mapping the Accessible Conformational Landscape of an Insect Carboxylesterase Using Conformational Ensemble Analysis and Kinetic Crystallography. Structure 24, 1-11 (2016).). […]

[1] = biological target: bacterial AmpC β-lactamase (Escherichia coli, UniProt P00811); assay: AmpC β-lactamase selectivity; format: biochemical
Protocol: as §1, §2

OB(O)c1cc(Br)cc(N2CCCC2)c1 [Compound 3] was tested, and the “selectivity for αE7 over trypsin” value (Trypsin) was “more than 10^6 fold” and the “selectivity for αE7 over AmpC β-lactamase” value [1] was 240 fold.
